Values quoted from earlier work in publication PMC2810552 (Journal of medicinal chemistry, 2009).

Biological target: T1, recombinant human GR (Homo sapiens, UniProt P04150)
T1 sequence (P04150 1-777): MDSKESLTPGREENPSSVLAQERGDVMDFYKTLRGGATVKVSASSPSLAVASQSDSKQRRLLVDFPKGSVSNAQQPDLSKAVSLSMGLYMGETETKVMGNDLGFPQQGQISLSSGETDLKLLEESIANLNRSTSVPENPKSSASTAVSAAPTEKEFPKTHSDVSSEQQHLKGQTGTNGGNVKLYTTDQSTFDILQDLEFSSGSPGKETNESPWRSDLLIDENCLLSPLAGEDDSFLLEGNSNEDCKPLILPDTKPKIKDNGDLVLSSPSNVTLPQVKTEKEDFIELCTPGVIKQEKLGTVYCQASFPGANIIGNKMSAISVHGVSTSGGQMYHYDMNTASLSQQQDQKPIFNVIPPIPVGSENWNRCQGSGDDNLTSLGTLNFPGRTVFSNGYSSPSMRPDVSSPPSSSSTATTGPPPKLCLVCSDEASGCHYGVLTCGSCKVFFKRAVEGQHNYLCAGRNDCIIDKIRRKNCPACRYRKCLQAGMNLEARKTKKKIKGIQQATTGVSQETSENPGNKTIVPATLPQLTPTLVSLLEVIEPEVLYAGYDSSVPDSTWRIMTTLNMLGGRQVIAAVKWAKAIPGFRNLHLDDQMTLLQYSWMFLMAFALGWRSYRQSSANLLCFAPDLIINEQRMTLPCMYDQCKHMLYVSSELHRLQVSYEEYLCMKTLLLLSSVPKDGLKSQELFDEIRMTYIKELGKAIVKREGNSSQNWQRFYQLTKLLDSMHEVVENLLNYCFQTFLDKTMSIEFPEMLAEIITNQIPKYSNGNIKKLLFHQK
Settings: cited from earlier work

## C[C@@H]1C[C@H]2[C@@H]3CCC4=CC(=O)C=C[C@]4(C)[C@@]3(F)[C@@H](O)C[C@]2(C)[C@@]1(O)C(=O)CSCCNC(=S)NCCCN(C)CCCNC(=O)CCNC(=O)c1cc(NC(=O)c2cc(NC(=O)c3cc(NC(=O)c4cc(NC(=O)CCCNC(=O)c5cc(NC(=O)c6cc(NC(=O)c7cc(NC(=O)c8nccn8C)cn7C)cn6C)cn5C)cn4C)cn3C)cn2C)cn1C [ImPy7γ-βDa-Sdex (6), ImPy7γ-βDa-Sdex]
  IC50, in vitro GR competition binding assay: close to that of dex
